pKd: −log10 of the molar value.
Tests used:
HepG2 cells = details: XTT assay, up to the highest dose
apo-MCR-1-S = apo-MCR-1-S (Escherichia coli, UniProt A0A0R6L508); assay: biochemical
Procedure: The apo-MCR-1-S without any tag was diluted into proper concentration for ITC assay. […] The stoichiometry of metal binding and binding affinities were obtained by fitting the data with proper equations and these assays were performed in triplicate.

The chains behind the UniProt entries cited, without tags or fusion partners. Residues count along the entry.
UniProt A0A0R6L508, 200-541: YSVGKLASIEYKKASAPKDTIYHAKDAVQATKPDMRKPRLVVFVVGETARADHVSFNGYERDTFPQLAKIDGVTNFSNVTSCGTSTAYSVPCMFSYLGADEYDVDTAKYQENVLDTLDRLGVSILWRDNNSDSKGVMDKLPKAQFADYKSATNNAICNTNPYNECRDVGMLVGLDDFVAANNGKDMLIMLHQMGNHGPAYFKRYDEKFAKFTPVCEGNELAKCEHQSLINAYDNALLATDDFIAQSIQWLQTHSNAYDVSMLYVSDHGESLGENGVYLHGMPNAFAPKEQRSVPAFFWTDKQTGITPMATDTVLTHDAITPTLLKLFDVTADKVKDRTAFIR

MCR-1-S = MCR-1-S (Escherichia coli, UniProt A0A0R6L508); details: ICP-MS
Procedure: The equilibrium dialysis was used to monitor the exact binding process. Apo-MCR-1-S was put in the inner side of dialysis membrane and outer side was supplemented with Au^+, Ag^+ or Zn^2+ at different molar ratios. Zn^2+ displacement analysis was performed by adding equivalents of Au^+ and Ag^+ into outer side of the membrane.

full length MCR-1 = molecular target: T1, full length MCR-1 (Escherichia coli, UniProt A0A0R6L508); assay type: biochemical; details: MCR-1 pre-treated with 10 molar equivalents, 25° C. overnight
T1 construct: The full length MCR-1 was pre-treated with or without 10 molar equivalents
Procedure: TLC plate was used to separate NBD-glycerol from the MCR-1 reaction mixture in a mobile phase [ethyl acetate:methanol:water, 7:2:1 (vol/vol)]. The reaction product was analyzed by exposing the TLC plate to UV light (455-485 nm) and visualizing the fluorescent signals with a gel imaging system. […] Cellular Thermal Shift Assay

Zn(II)-MCR-1-S = Zn(II)-MCR-1-S (Escherichia coli, UniProt A0A0R6L508); details: PAR assay

Question: How did the “cytotoxicity against HepG2 cells” value (HepG2 cells) turn out when `[Ag+]` [AgNO3, silver nitrate] was run?
Answer: Its value is “did not exhibit or showed very low cytotoxicity”.

Question: With `[Au+]` [AuCl, gold(I) chloride] as the compound, how does the pKd (apo-MCR-1-S) read?
Answer: The pKd was roughly 6.10.

Question: And the “replacement of protein bound metal by extraneous Zn(II)” value (MCR-1-S)?
Answer: Its value is “could not be replaced”.

Question: And the “equivalents of metal that replaced about 3 molar equivalents of Zn(II)” value (MCR-1-S; equilibrium dialysis)?
Answer: Its value is 2.25 equivalent.

Question: And the “migration of NBD-glycerol (cleavage activity of MCR-1)” value (full length MCR-1)?
Answer: Its value is “none of AgNO3, AuCl or Au(PEt3)Cl treatment group exhibited observable migration”.

Question: What about the “release of Zn(II) from MCR-1-S upon titration” value (Zn(II)-MCR-1-S) of the same compound?
Answer: The value was “completely released”.

Source: patent US12357657B2, “Silver-/gold-compounds and methods thereof” (priority 2019, dated 2025)
